Measurements as given in ChEMBL document CHEMBL4321821, “Opioids as Substrates and Inhibitors of the Genetically Highly Variable Organic Cation Transporter OCT1” (J Med Chem, 2019).
This is a selection: effects in other tests are not listed, and their absence says nothing.

Protein sequences, listed by entry. Tags and fused reporters are not part of them.
UniProt O15245, whole entry: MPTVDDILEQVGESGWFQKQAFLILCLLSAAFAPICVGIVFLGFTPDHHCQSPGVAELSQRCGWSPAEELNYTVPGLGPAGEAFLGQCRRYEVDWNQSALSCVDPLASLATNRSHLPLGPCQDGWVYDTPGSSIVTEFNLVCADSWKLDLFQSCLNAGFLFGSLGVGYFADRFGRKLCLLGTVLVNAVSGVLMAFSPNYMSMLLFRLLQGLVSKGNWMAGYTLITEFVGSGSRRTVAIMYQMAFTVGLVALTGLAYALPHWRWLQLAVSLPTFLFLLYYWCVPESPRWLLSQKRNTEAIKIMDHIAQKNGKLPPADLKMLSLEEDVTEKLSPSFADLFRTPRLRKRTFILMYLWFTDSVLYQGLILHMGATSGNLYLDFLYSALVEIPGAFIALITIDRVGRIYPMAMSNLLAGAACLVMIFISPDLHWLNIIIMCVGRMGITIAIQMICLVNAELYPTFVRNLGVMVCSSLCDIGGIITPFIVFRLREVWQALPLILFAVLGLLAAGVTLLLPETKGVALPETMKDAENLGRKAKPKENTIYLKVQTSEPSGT
UniProt O75751, whole entry: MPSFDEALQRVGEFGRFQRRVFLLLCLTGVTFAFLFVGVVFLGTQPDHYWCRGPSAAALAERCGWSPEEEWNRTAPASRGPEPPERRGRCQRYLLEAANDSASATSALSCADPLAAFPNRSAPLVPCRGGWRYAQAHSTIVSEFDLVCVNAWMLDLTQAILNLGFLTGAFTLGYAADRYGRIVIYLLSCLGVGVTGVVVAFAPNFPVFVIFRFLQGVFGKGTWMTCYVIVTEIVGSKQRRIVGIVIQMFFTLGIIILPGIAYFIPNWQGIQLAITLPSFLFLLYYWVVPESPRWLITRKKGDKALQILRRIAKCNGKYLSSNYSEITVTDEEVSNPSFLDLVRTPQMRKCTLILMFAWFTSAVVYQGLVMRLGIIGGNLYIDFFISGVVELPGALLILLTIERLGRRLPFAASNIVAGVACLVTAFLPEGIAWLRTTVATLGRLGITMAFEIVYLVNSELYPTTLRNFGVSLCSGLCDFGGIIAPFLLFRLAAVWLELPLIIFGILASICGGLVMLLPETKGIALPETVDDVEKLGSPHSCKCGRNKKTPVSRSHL

Assays:
Format in all cases: cell-based
Conditions in all cases: hek293, 2 min
[1] = target: T1, Solute carrier family 22 member 1 (Homo sapiens, UniProt O15245); assay: Substrate activity at human OCT1 expressed in HEK293 cells assessed as increase in compound uptake at 0.5 uM incubated for 2 mins by LC-MS/MS analysis relative to control empty vector transfected cells
[2] = target: Solute carrier family 22 member 3 (Homo sapiens, UniProt O75751); assay: Substrate activity at human OCT3 expressed in HEK293 cells assessed as increase in compound uptake by measuring Vmax incubated for 2 mins by LC-MS/MS analysis based Michaelis-Menten plot analysis relative to control empty vector transfected cells
[3] = target: T1, Solute carrier family 22 member 1; assay: Substrate activity at human OCT1 expressed in HEK293 cells assessed as increase in compound uptake at 0.05 uM incubated for 2 mins by LC-MS/MS analysis relative to control empty vector transfected cells
[4] = target: T1, Solute carrier family 22 member 1; assay: Substrate activity at human OCT1 expressed in HEK293 cells assessed as increase in compound uptake by measuring Vmax incubated for 2 mins by LC-MS/MS analysis based Michaelis-Menten plot analysis relative to control empty vector transfected cells
[5] = target: T1, Solute carrier family 22 member 1; assay: Substrate activity at human OCT1 expressed in HEK293 cells assessed as increase in compound uptake at 0.1 uM incubated for 2 mins by LC-MS/MS analysis relative to control empty vector transfected cells

CCC(=O)N(c1ccccc1)C1CCNCC1
fold change (FC) [1]: 7.2 | Vmax [2]: 104 pmol/min/mg | fold change (FC) [3]: 7 | Vmax [4]: 178 pmol/min/mg | fold change (FC) [5]: 6.6
